# AlphaSeq binding of Ab-95 light chain variants to a spike HR2 peptide

Values reported by Engelhart et al. 2022, doi:10.1038/s41597-022-01779-4 (FLAb copy).

Target peptide (SARS-CoV-2 spike, HR2 region): PDVDLGDISGINAS

Each scFv is VH, a 15-residue (Gly4Ser)3 linker, VL, as in the parent Ab-95, and differs from it in the CDRs of the light chain only.
VH: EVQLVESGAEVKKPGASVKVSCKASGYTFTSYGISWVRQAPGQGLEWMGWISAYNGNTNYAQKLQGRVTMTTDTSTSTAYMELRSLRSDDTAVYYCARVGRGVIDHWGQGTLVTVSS
VL: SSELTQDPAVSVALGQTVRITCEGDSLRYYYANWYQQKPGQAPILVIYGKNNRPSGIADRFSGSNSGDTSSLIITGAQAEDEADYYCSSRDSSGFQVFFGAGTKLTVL

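In library AAYL52, one, two or three CDR residues were substituted; doubles and triples were drawn at random. The scFvs were displayed on barcoded MATa yeast, the peptide on MATalpha yeast. Pairs that bind mate more often; barcode pairs of the diploids are counted by sequencing. Scores were corrected for input abundance and mapped to Kd with protein pairs of known affinity run in the same pool. The assay was run in three technical replicates.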

The parent's light chain CDRs are EGDSLRYYYAN, GKNNRPS, SSRDSSGFQVF; each variant's own CDRs replace them letter for letter. Numbers give log10(Kd / nM), so 0 is 1 nM and 3 is 1 µM. Smaller is tighter. Averages over replicates are reported, and they cover detected replicates only. An entry "nd" has no value in the source: the pair was not observed among the diploids in that replicate. This suggests poor binding but is not conclusive. Background: pairings of library AAYL52 with three empty control strains gave a value in 28% of cases (median 3.91, 5th percentile 2.90). Values in that range, when seen in few replicates, are hard to tell from nonspecific mating. The control count says in how many pairings with the empty strains this scFv gave a signal, with their mean in brackets.

CDR-L1,CDR-L2,CDR-L3,"replicates, log10 nM","mean, log10 nM",control signals
EGQSLRYYYAN,GGNNRPG,SSRDSSGFQVF,1.88 1.99 1.96,1.94,3 of 9 (4.36)
EGDSLRYYYAN,GKNNRGS,SSRGSSGFQVF,3.50 3.70 3.86,3.69,1 of 9 (3.15)
EGDLLRYYYAN,GKNNRPW,SSLDSSGFQVF,4.05 nd 3.05,3.55,1 of 9 (3.84)
MGDSLRDYYAN,GNNNRPS,SSRDSSGFQVF,1.38 1.35 0.74,1.16,4 of 9 (3.76)
RGDSLREYYAN,GKNNRPS,NSRDSSGFQVF,1.96 1.58 1.43,1.66,1 of 9 (3.69)
EGESLKYYYAV,GKNNRPS,SSRDSSGFQVF,4.01 nd 4.35,4.18,7 of 9 (4.16)
VGDSLRYYYAN,GKNDRPS,SSRDSSGFQQF,1.84 2.28 1.61,1.91,1 of 9 (4.40)
EGDSLRYYYAN,GKNKRPS,SSRDSHWFQVF,4.91 5.20 2.89,4.33,2 of 9 (4.31)
EGDSLRYYYAN,GKLNRPS,SSRDESGEQVF,3.95 3.50 nd,3.73,0 of 9
EGDSLLYYFAN,GKNNRPS,SSRWSSGFQVF,2.69 2.46 3.54,2.90,1 of 9 (3.22)
EMDSLRHYYAN,GKNNRPS,SSRDSSGFQDF,2.70 nd nd,2.70,1 of 9 (3.45)
PGDSLRYYYAN,GKNNRPS,SSFDSTGFQVF,nd nd nd,nd,0 of 9
EGDSLRYYYAN,GKNNRES,MSRSSSGFQVF,2.29 2.33 3.44,2.69,0 of 9
EGMSLRYYYAN,GKNNRPD,SSRDSLGFQVF,2.66 3.57 2.01,2.75,3 of 9 (4.14)
EIDSLRYYYAM,GKNNRPS,SHRDSSGFQVF,nd nd nd,nd,2 of 9 (3.98)
EGDSLRYYYHN,GKNNRPS,SSQDLSGFQVF,3.86 nd nd,3.86,4 of 9 (4.29)
EGLSLRYYLAN,GKNNRPS,SSRDSSGFSVF,3.85 3.36 3.05,3.42,1 of 9 (4.38)
EGDSLRYYYAN,GKNNRPS,SSRDSEGFQVE,2.85 2.83 2.51,2.73,5 of 9 (4.14)
EGDSLRYYYAN,GKNARPS,SSRDSSQFQLF,3.52 2.26 2.37,2.72,4 of 9 (4.21)
EEDSLRYYYAN,GPNNRPS,SSRDSMGFQVF,3.40 3.75 nd,3.58,4 of 9 (4.15)
EGDSLRYYIAN,GKNRRPS,SSRDSSGFMVF,3.64 4.13 nd,3.88,3 of 9 (4.27)
EGDSLRYYYAN,GKNNRPS,SSRDSSGFQSF,1.99 2.26 3.00,2.42,2 of 9 (3.64)
EGDGLRYYYAN,GKNNRPS,SSRDSSGFKVF,3.57 2.53 2.92,3.01,3 of 9 (3.87)
EGDSLEYYYAN,WKNNRPS,SSRDSSGFQVF,nd nd nd,nd,4 of 9 (3.55)
EGDALRYYYAL,GKNNRPS,MSRDSSGFQVF,nd nd nd,nd,2 of 9 (4.29)
EGDSLRYYYAN,GKNNRPQ,SSRDSSRFQVM,2.32 2.17 2.39,2.29,7 of 9 (3.97)
EGDSLRYYYDT,GKNNRPS,SSRDSSWFQVF,nd nd nd,nd,4 of 9 (4.30)
EGDSLRYYYAN,GKNNRQS,SGRDSSHFQVF,4.37 3.43 nd,3.90,6 of 9 (3.79)
EGDSLTGYYAN,GKNNRAS,SSRDSSGFQVF,1.71 1.64 1.09,1.48,4 of 9 (4.65)
EGDSLRYYYAN,GKPNRPF,SSRDSMGFQVF,nd nd nd,nd,0 of 9
EGDSLRYYYAN,GTNNRPS,SARDSSGGQVF,3.26 3.12 2.83,3.07,4 of 9 (3.74)
EGDSLRYYYFN,HKNERPS,SSRDSSGFQVF,nd 4.93 nd,4.93,9 of 9 (3.75)
EGDELRYYYTN,GKNNRPS,SSRDSSGFGVF,4.34 5.15 2.85,4.11,5 of 9 (3.07)
EGDSLCYYMAN,GKNNRPS,SNRDSSGFQVF,2.46 4.06 2.49,3.00,2 of 9 (3.40)
EGDSQTYYYAN,CKNNRPS,SSRDSSGFQVF,nd nd nd,nd,3 of 9 (3.44)
EGDSLAYYYAN,GKNNRPS,SSRDSSGFQQF,nd nd nd,nd,2 of 9 (4.45)
CGDSLRYYYRN,GKNNRPS,SSRDSSGFQVR,nd nd nd,nd,1 of 9 (4.08)
EGDSLRYYYAN,GKNNRPS,SSRDSAGVQVV,2.54 2.59 2.51,2.55,1 of 9 (3.72)
EGDYLRYYYAP,GKNNRPS,SSRDSSQFQVF,nd nd 3.25,3.25,2 of 9 (3.47)
EGDSLRYYFGN,GWNNRPS,SSRDSSGFQVF,4.88 3.22 3.51,3.87,1 of 9 (4.31)
EGDSLRYYYAN,GKNNRPW,SSRDSSGVQVP,2.99 2.35 nd,2.67,1 of 9 (2.45)
NGDSLRYYYQN,GKNNRPS,SSRDSGGFQVF,5.48 nd nd,5.48,5 of 9 (4.22)
EGDSLRYGYAN,GKNNRPS,SSRPSSSFQVF,1.67 1.56 1.47,1.56,5 of 9 (4.32)
EGDSLRYYYAN,GKNNEPS,SSRDSSGFQVF,3.54 3.61 3.99,3.71,5 of 9 (3.47)
EGDSLRYYYPV,GKNNRPS,SSRDASGFQVF,2.90 2.60 2.52,2.67,2 of 9 (3.30)

The opening 4 entries, copied out:

CDR-L1,CDR-L2,CDR-L3,"replicates, log10 nM","mean, log10 nM",control signals
EGQSLRYYYAN,GGNNRPG,SSRDSSGFQVF,1.88 1.99 1.96,1.94,3 of 9 (4.36)
EGDSLRYYYAN,GKNNRGS,SSRGSSGFQVF,3.50 3.70 3.86,3.69,1 of 9 (3.15)
EGDLLRYYYAN,GKNNRPW,SSLDSSGFQVF,4.05 nd 3.05,3.55,1 of 9 (3.84)
MGDSLRDYYAN,GNNNRPS,SSRDSSGFQVF,1.38 1.35 0.74,1.16,4 of 9 (3.76)

For reference, the parent read 2.31 as the reference entry and 2.25 as a member of this library.